Experimental data as given in patent US10960087B2, “Compositions and methods for treatment of diabetic retinopathy” (NOVARTIS AG, priority 2007, dated 2021).

Sequences of proteins named here, by UniProt entry; tags and fusion partners are left off. Residues count along the entry.
UniProt P05107, 23-769 limits assumed: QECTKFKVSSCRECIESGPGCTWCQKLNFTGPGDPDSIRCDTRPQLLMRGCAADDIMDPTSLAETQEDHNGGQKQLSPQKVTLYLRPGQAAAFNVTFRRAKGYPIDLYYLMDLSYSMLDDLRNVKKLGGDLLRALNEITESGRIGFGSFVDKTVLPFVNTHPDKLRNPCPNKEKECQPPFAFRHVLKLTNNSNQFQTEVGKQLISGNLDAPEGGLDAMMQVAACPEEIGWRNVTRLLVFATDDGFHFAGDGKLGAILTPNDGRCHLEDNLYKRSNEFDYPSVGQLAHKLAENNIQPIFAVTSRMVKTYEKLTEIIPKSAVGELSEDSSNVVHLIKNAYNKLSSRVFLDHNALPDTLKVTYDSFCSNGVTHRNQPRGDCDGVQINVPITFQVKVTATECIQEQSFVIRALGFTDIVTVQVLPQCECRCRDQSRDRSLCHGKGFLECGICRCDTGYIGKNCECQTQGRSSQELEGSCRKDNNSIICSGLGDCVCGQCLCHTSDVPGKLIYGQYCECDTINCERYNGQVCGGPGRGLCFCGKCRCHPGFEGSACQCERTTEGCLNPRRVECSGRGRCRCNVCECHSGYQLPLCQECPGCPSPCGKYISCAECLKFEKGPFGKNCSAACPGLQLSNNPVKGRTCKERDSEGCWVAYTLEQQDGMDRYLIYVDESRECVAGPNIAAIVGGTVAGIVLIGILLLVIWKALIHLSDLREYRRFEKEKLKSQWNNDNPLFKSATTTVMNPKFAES
UniProt P20701, 26-1170 limits assumed: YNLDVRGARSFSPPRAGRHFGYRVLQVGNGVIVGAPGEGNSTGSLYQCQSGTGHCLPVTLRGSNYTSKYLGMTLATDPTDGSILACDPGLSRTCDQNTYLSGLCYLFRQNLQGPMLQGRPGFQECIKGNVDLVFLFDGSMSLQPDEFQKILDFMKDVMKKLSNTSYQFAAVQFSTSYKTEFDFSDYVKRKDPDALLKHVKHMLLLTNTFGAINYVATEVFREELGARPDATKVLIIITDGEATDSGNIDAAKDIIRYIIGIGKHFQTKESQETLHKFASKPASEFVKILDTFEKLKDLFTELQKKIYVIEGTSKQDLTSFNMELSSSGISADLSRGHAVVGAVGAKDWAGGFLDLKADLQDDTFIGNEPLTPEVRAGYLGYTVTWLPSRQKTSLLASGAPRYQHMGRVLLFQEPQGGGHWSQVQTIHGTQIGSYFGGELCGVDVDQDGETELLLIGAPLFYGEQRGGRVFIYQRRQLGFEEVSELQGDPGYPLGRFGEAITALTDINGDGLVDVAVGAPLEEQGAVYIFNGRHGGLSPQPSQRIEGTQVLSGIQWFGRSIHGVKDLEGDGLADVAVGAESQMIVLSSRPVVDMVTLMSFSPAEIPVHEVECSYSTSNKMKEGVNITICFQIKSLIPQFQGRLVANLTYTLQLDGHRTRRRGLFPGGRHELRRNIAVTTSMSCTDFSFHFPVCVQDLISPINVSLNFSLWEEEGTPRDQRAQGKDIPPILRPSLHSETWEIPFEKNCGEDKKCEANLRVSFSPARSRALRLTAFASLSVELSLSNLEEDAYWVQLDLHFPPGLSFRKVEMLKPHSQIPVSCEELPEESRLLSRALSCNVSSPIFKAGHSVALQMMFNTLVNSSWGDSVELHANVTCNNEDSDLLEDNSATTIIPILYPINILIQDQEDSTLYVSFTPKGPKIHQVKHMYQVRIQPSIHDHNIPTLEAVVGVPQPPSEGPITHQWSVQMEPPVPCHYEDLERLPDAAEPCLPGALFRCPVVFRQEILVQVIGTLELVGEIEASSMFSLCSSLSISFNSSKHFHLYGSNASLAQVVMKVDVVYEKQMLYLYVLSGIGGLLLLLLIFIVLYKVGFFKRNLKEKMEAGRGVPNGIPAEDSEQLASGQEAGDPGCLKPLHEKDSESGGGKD

What was measured:
[1] = target: binding of ICAM-1-Ig to LFA-1 (Homo sapiens, UniProt P05107+P20701); assay: LFA-1/ICAM-1 ELISA, antagonist competition
[2] = target: binding of compound 2B to LFA-1 (Homo sapiens, UniProt P05107+P20701); assay: LFA-1/small molecule ELISA, antagonist competition; conditions: read-out: IC50, inhibition of binding of compound 2B to LFA-1, 25 nM compound 2B

IC50 relative to that of compound 3, ICAM-1-Ig binding to LFA-1 [1]: approximately 10 fold
IC50 [2]: 56 nM
SMILES: NCCCCCC(=O)NCCCC[C@H](NC(=O)c1ccc(C(=O)NCc2cccc(O)c2)cc1Cl)C(=O)O
